Compound activity from PubChem BioAssay.
Nrf2 ARE act: activates Nrf2 signaling; AREc32 ARE-luciferase reporter (MCF7-derived line), luminescence, 24 h; Potency, µM (highest dose often 46.1 µM), for the others: top-dose activation, usual class: activators; 410,000 tested, 0.31% active; further: potency means the concentration at half of the fitted maximal effect; % of control where 0% means no effect; nearly all actives have a fitted effect of over 65% in size
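AREc32 cells carrying an ARE-driven firefly luciferase reporter were seeded at 1000 cells/well in OPTI-MEM with 5% FBS, then exposed to compound for 24 hr at 37 deg C. Luminescence was read with Steady-Glo after 30 min at RT.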
B2AR arrestin: recruits beta-arrestin to the human beta2-adrenergic receptor; beta-arrestin recruitment to beta2AR, cell-based reporter; Potency, µM (titrated, usually from 46.1 µM), without a hit: at the highest dose activation, hits mostly activators; 330,000 tested, 0.02% active; AID 492947;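 further: potency means the concentration at half of the fitted maximal effect; 0% = DMSO controls and full agonism = EC100 isoproterenol or metaproterenol; nearly all actives have a fitted effect of over 65% in size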
A549 viability: kills or reduces viability of A549 cells in Nrf2 counter-screen; A549 ARE-Fluc cells, CellTiter-Fluor viability, 18-24 h; Potency, µM (top dose mostly 46 µM), for inactives: at the highest dose activity change, negative = cytotoxicity, actives largely listed as inhibitors; 390,000 tested, 0.16% active; AID 504648; further: potency means the concentration at half of the fitted maximal effect; on the % scale 0 is the no-effect control and ±100 the full control effect
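A549 ARE-Fluc cells in 5% FBS OPTI-MEM, 5000 cells/well, rested 2 h then exposed to compounds in concentration-response for 18-24 h at 37 °C. Viability by CellTiter-Fluor fluorescence (Ex 405/Em 525) after 30 min; luciferase luminescence (BugLite, 15 min, RT) read afterwards.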
Nrf2 inh: Nrf2 pathway inhibition; A549 ARE-Fluc reporter, luciferase luminescence, 18-24 h; Potency, µM (doses to about 46 µM), for inactives: top-dose activity change, negative = inhibition, hits mostly inhibitors; 360,000 tested, 2.1% active; AID 504444; further: potency means the concentration at half of the fitted maximal effect; on the % scale 0 is the no-effect control and ±100 the full control effect; nearly all actives have a fitted effect of over 60% in size
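Two sequential reads on A549 ARE_Fluc cells exposed to compound for 18-24 h: a CellTiter-Fluor fluorescence read for viability, then a luciferase luminescence read for Nrf2/ARE activity.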
miR-21 reporter: miR-21 reporter, rising signal. HeLa miR-21 FLuc reporter, luciferase, 48 h. Potency, µM (highest dose often 38.3 µM), for the others: at the highest dose reporter change, positive = more light. 340,000 tested, under 10 active. AID 2288; active = well fitted rising curve with a large enough effect; inconclusive = small, poorly fitted or top-dose-only effect; inactive = no such curve, though single readings can be large or run the other way;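 further: % of control where 0% means no effect; miR-21 action dims this reporter so a rising signal means less miR-21 action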
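HeLa cells endogenously expressing miR-21, stably carrying CMV-driven firefly luciferase with a downstream miR-21 binding site, 2000 cells/well. Titrations up to approximately 40 uM, 48 hours; luciferase luminescence read.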
An asterisk follows results filed as active; ? = inconclusive; / = not tested or not shown. Hits are enriched below; roughly 2.2% of the tested compounds scored in any of these assays. Unless noted, the call rests on the fitted dose curve; in most records, active means well fitted curve in the direction sought with a large enough effect; inconclusive means small, poorly fitted or top-dose-only effect, or another doubt; inactive means no such curve, though single readings can be large; an effect the other way counts as inactive or inconclusive.

(1) CCC(C)c1ccc(S(=O)(=O)N2CCN(C(=O)c3ccc(Cl)c(S(=O)(=O)N4CCOCC4)c3)CC2)cc1 (stereo unspecified)
(2) O=C(c1ccc(Cl)c(S(=O)(=O)N2CCCCCC2)c1)N1CCN(c2ccccc2O)CC1
(3) O=C(c1ccc(Cl)c(S(=O)(=O)N2CCOCC2)c1)N1CCN(c2ccccc2)CC1
(4) O=C(c1ccc(Cl)c(S(=O)(=O)N2CCCC2)c1)N1CCN(c2ccccc2)CC1
(5) CCOC(=O)N1CCN(C(=O)c2ccc(Cl)c(S(=O)(=O)N3CCOCC3)c2)CC1
(6) Cc1cc2c(s1)c1cnn(Cc3cc(OC(F)(F)F)ccc3F)c(=O)c1n2C
(7) Cc1cc(C)cc(OCC(O)CN2CCC(CN3C(=O)c4cccc5cccc(c45)C3=O)CC2)c1 (stereo unspecified)
(8) COc1cccc(OCC(O)CN2CCC(CN3C(=O)c4cccc5cccc(c45)C3=O)CC2)c1 (stereo unspecified)
(9) COc1ccc2cc3c(N)nn(C(=O)c4ccc(F)cc4)c3nc2c1
(10) COc1ccc2cc3c(N)nn(C(=O)Cc4c[nH]c5ccccc45)c3nc2c1
screen / no.	1	2	3	4	5	6	7	8	9	10
Nrf2 ARE act	1%	0%	3%	2%	0%	/	-1%	16%	0%	-4%
B2AR arrestin	/	0%	0%	0%	0%	/	0%	0%	-1%	0%
A549 viability	-10%	-15%	6%	-15%	-3%	1%	?	?	-26%	-2%
Nrf2 inh	10µM*	18µM*	-5%	15µM*	9%	-3%	18µM*	20%	5.8µM*	16µM*
miR-21 reporter	/	26%	2%	7%	-3%	/	-20%	20%	21%	?

(11) COc1cccc(CC(=O)n2nc(N)c3cc4ccc(OC)cc4nc32)c1
(12) O=c1cc(COc2ccccc2Cl)nc2scc(-c3ccccc3)n12
(13) COc1ccc(-c2nc(NC(=O)C3CC(=O)N(Cc4ccco4)C3)sc2C)cc1 (stereo unspecified)
(14) Cc1cc2c(s1)c1cnn(Cc3c(F)ccc(F)c3F)c(=O)c1n2C
(15) CC(C)C(=O)Nc1nc2c(ncn2[C@H]2CC(O)[C@@H](CO)O2)c(=O)[nH]1 (stereo partly specified)
(16) CCc1cccc(NC(=O)Cn2c(=O)n(CC(=O)NCCc3ccccc3)c(=O)c3ccccc32)c1
(17) COc1ccc(C2(c3ccc(OC(C)=O)cc3OC(C)=O)CC(c3ccccc3)NC(=S)N2)cc1 (stereo unspecified)
(18) CC(=O)Oc1ccc2c(c1)OC(c1ccccc1)CC21CC(C)(C)NC(=S)N1 (stereo unspecified)
(19) Cc1cc(CSc2ccccc2)ccc1NC(=O)COc1ccccc1
(20) COc1ccccc1OCC(=O)Nc1ccc(CSc2ccccc2)cc1C
screen / no.	11	12	13	14	15	16	17	18	19	20
Nrf2 ARE act	0%	0%	-1%	/	/	0%	6%	0%	0%	0%
B2AR arrestin	-1%	/	-1%	/	/	/	0%	-1%	-1%	0%
A549 viability	-4%	0%	?	4%	-21%	12%	?	1%	-9%	-15%
Nrf2 inh	-25%	0%	23µM*	28%	?	-11%	21µM*	-23%	?	10µM*
miR-21 reporter	11%	-17%	/	/	/	-4%	1%	-2%	-4%	-1%

Random excerpt: 3 entries already listed, in no set order.
(14) Cc1cc2c(s1)c1cnn(Cc3c(F)ccc(F)c3F)c(=O)c1n2C
(13) COc1ccc(-c2nc(NC(=O)C3CC(=O)N(Cc4ccco4)C3)sc2C)cc1 (stereo unspecified)
(17) COc1ccc(C2(c3ccc(OC(C)=O)cc3OC(C)=O)CC(c3ccccc3)NC(=S)N2)cc1 (stereo unspecified)
screen / no.	14	13	17
Nrf2 ARE act	/	-1%	6%
B2AR arrestin	/	-1%	0%
A549 viability	4%	?	?
Nrf2 inh	28%	23µM*	21µM*
miR-21 reporter	/	/	1%

The list continues:
(21) CCOC(=O)c1c(NC(=O)c2c(Br)cnn2C)c(C#N)nn1-c1ccccc1
(22) CCn1cc(S(=O)(=O)c2ccc(OC)cc2)c(=O)c2cc(F)c(N3CCC(C)CC3)cc21
(23) N#Cc1nc(NCCO)nc(Nc2ccccc2)n1
(24) CCc1ccccc1Nc1nc2ccccc2[nH]1
(25) Cc1cc(N2CCN(S(=O)(=O)c3ccc(Cl)c(Cl)c3)CC2)c2ccccc2n1
(26) Cc1cc(N2CCN(S(=O)(=O)c3ccc(Cl)cc3)CC2)c2ccccc2n1
(27) Cc1cc(C)cc(NC(=O)c2cc(S(=O)(=O)N3CCCC3)ccc2F)c1
(28) NS(=O)(=O)c1ccc(N2N=C(c3ccccc3)CC2c2ccccc2)cc1 (stereo unspecified)
(29) NS(=O)(=O)c1ccc(N2N=C(c3ccccc3)CC2c2ccccc2Cl)cc1 (stereo unspecified)
(30) C=CCC[C@H](Cc1ccc(F)cc1)C(=O)OC[C@@H](Cc1c[nH]c2ccccc12)NC(=O)[C@@H](CC=C)CC(=O)N(CCO)Cc1ccccc1
screen / no.	21	22	23	24	25	26	27	28	29	30
Nrf2 ARE act	1%	0%	/	0%	1%	0%	7%	4%	1%	-4%
B2AR arrestin	-1%	/	/	/	0%	0%	/	0%	0%	-1%
A549 viability	-13%	0%	-7%	-1%	-3%	-22%	21%	-3%	?	12µM*
Nrf2 inh	18µM*	16µM*	7%	15µM*	23µM*	21µM*	/	?	21µM*	9.2µM*
miR-21 reporter	26%	-3%	/	/	26%	26%	0%	10%	/	/

(31) C=CC[C@@H](CC(=O)N[C@H](CO)Cc1ccccc1)C(=O)N[C@H](COC(=O)[C@@H](CC=C)CC(=O)OC(C)(C)C)Cc1c[nH]c2ccccc12
(32) C=CCC[C@H](Cc1ccc(F)cc1)C(=O)OC[C@H](Cc1c[nH]c2ccccc12)NC(=O)[C@@H](CC=C)CC(=O)N(CCO)Cc1ccccc1
(33) O=C(CNC(=O)c1ccc(C(F)(F)F)cc1)OC(C(=O)Nc1cc(C(F)(F)F)ccc1Cl)c1ccccc1 (stereo unspecified)
(34) CCCCN1C(=O)c2ccccc2NC1c1ccc(OC)c(COc2ccc(NC(C)=O)cc2)c1 (stereo unspecified)
(35) COc1ccccc1CCNS(=O)(=O)c1ccc(N2CCCCS2(=O)=O)cc1
(36) CC(=O)Nc1ccccc1N(CC(O)Cn1c2ccccc2c2ccccc21)S(=O)(=O)c1ccc(C)cc1 (stereo unspecified)
(37) O=C(Nc1ccccc1F)c1ccc(-c2cccc([N+](=O)[O-])c2)o1
(38) COC(=O)CN1C(=O)[C@@H]2[C@H](C1=O)[C@@H]1CC(C(=O)OC)=C[C@@H](C(=O)OC)C3C1=C(C(=O)C31CCCCC1)[C@@H]2C (stereo partly specified)
(39) C=CC[n+]1c(-c2ccc(OC)cc2)csc1NNC(=O)Nc1ccccc1
(40) COc1ccc(Cc2nc(C(=O)Nc3ccccc3)cs2)cc1
(41) O=C(/C=C/c1ccc([N+](=O)[O-])s1)N1CCCC1
(42) O=C(/C=C/c1ccc([N+](=O)[O-])s1)N1CCCCC1
(43) c1ccc(P(c2ccccc2)c2cnc3ccccn23)cc1
screen / no.	31	32	33	34	35	36	37	38	39	40	41	42	43
Nrf2 ARE act	-4%	-3%	/	/	0%	0%	1.4µM*	/	4%	5%	?	?	/
B2AR arrestin	-3%	-1%	/	/	/	1%	0%	/	-1%	-1%	0%	0%	/
A549 viability	12µM*	?	14%	0%	0%	-22%	-1%	-2%	-7%	2%	-23%	-5%	-1%
Nrf2 inh	21µM*	?	13%	?	/	26µM*	?	?	15µM*	-28%	21µM*	-2%	-2%
miR-21 reporter	/	/	/	/	2%	16%	-50%	/	6%	-21%	?	29%	/
